Results reported in US20210395312A1, “QUANTUM CONFINED PEPTIDE ASSEMBLIES AND USES THEREOF” (Ramot at Tel-Aviv University Ltd., priority 2019, published 2021).
Several values for one entry are separate records, joined by “and”; a condition that tells them apart may be missing. Equal entries are not always repeated.

Experiments:
Assay type in all cases: physicochemical
[1] = Quantum yield (QY) measurement; conditions: MeOH
Method: Quantum yield (QY) measurement: 5 mL sample solution was pipetted into a 1.0 cm path-length quartz cuvette with a tube (Hellma, Müllheim, Germany), and the absolute quantum yield was measured on an absolute PL quantum yield spectrometer C11347 (Hamamatsu Photonics, Shizuoka, Japan) at ambient temperature. The relevant blanks, namely anhydrous MeOH, MeOH solutions of ZnCl2 (CuCl2), or DMSO solution of ZnCl2, were used as background and subtracted. At least five measurements were performed and averaged for accuracy.
(§1) Fluorescence spectroscopy and quantum yield (QY) measurement: 600 μL sample solution was pipetted into a 1.0 cm path-length quartz cuvette, and the spectrum was collected using a FluoroMax-4 Spectrofluorometer (Horiba Jobin Yvon, Kyoto, Japan) at ambient temperature. The excitation and emission wavelengths were set at 300-500 nm and 400-650 nm, respectively, with a slit of 2 nm. Absolute fluorescence QY measurements were performed using Quanta-Phi integrating sphere connected to Fluoromex-4.

[2] = Morphology and size of self-assemblies (AFM, DLS, TEM); conditions: self-assemblies in MeOH
Method: Dynamic light scattering (DLS): 850 μL of the sample solution was introduced into a DTS1070 folded capillary cell (Malvern, Worcestershire, U.K.), and the size was measured using a Zetasizer Nano ZS analyzer (Malvern Instruments, Malvern, UK) at 25.0° C. and a backscatter detector (173°). Three measurements were performed and averaged for accuracy.
Atomic force microscopy (AFM): 4 μL of sample solution was dropped onto a freshly cleaved mica surface and let it dry. The mica was then rinsed with water and purged dried gently with nitrogen. A topographic image was recorded under a NanoWizard 3 BioScience AFM (JPK, Berlin, Germany) in the tapping mode at ambient temperature, with 512×512 pixel resolution and a scanning speed of 1.0 Hz.
Transmission electron microscopy (TEM): A carbon-coated copper grid was placed on a 10 μL cyclo-dipeptide droplet for 1 minute and then blotted. Next, the washed grid was placed on a 10 μL droplet containing 4% (w/v) uranyl acetate solution for 1 min and then blotted. Samples were examined using Tecnai G2 Spirit TEM (FEI) at 80 kV.
Atomic force microscopy (AFM): 5 μL of sample solution was dropped onto a freshly cleaved mica surface and dried by N2 purge (99.99%). […] A topographic image was recorded under a Dimension icon AFM (Bruker) in the tapping mode at ambient temperature, with a 512×512-pixel resolution and a scanning speed of 1.0 Hz. […]

[3] = Fluorescence characterization (excitation/emission) of self-assemblies
Method: UV-Visible fluorescence characterization: 600 μL sample solution was pipetted into a 1.0 cm path-length quartz cuvette, and the spectrum was collected using a FluoroMax-4 Spectrofluorometer (Horiba Jobin Yvon, Kyoto, Japan) at ambient temperature. For molecular fluorescence of some experiments, the emission wavelength was set at 350 nm with a slit of 3 nm, and the excitation wavelength was set at 200-330 nm with a slit of 3 nm. For self-assembly fluorescence, the excitation wavelength was set at 370 nm with a slit of 3 nm, and the emission wavelength was set at 380-700 nm with a slit of 3 nm. For excitation-dependent maximal emission evolution experiment, the excitation wavelengths were set at 300-450 nm with a slit of 3 nm, and the emission wavelengths were set at 380-600 nm with a slit of 3 nm. […] Emission and excitation wavelengths, slit dimensions and background solutions were adjusted per the measured sample and are as indicated below. […]
as §1, with “The excitation and emission wavelengths were set at 300-500 nm and 400-650 nm, respectively, with a slit of 2 nm.” left out

[4] = excitation set at 350 nm if maximal excitation less than 350 nm

Substance	QY [1, 4]	further results
phenylalanine-histidine cyclic dipeptide [cyclo-HF]	2%	–
tryptophan-tryptophan cyclic dipeptide [cyclo-WW]	2%	–
tryptophan-histidine cyclic dipeptide [cyclo-WH]	3% and 2%	–
cyclo-diphenylalanine [cyclo-FF]	–	Structures [2]: nanofibers; emission ([3]; DMSO, Ex 450 nm (cyclo-FF), Ex 480 nm (cyclo-YY)): 530 nm; Emission (λEm) ([3]; maximal emission, MeOH): no detectable emissions
histidine-tyrosine cyclic dipeptide [cyclo-HY]	3%	QY ([1]; in the presence of Zn(II)): 9%
tyrosine-tryptophan cyclic dipeptide [cyclo-WY]	3%	–
